In patent publication US20260384421A1, “NOVEL COMPOUNDS THAT CAN BE USED AS THERAPEUTIC AGENTS” (published 2026):
pIC50: −log10 of the molar value. Like-named read-outs stand apart in the source and are kept apart here.

Experiments:
MDA-MB-231 cells = test: alamarBlue proliferation assay with MDA-MB-231 cells (glucose-free Leibovitz's L-15 medium)
From the text: (§1) These hyperproliferative processes can be benign or malignant and include hyperplasia, neoplasia, cancer and pre-cancerous lesions, and metastases. The antiproliferative activities of compounds falling under general formula (I) were investigated on human primary epidermal keratinocytes (HPEK) and human, murine and canine cell lines derived from hyperproliferative tissue or different cancer types, including MDA-MB-231, ZR-75-30, HCC-1395, HCC-1937, and T-47D all originating from cancer of the breast, JURKAT, RPMI-8402, LOUCY, TANQUE, REC-1, HL-60, NB-4 all originating from different types of blood cancer including lymphoma and leukemia of T-cells, B-cells and myeloid cells, TT originating from cancer of the neuroendocrine system, HeLa originating from cancer of the cervix, 23132/87, SW-948, and HCT-116 all originating from cancer of the gastrointestinal tract including stomach and colon, BHY originating from cancer of the mucosal epithelium, A-431 originating from cancer of the skin, HEP-G2 originating from cancer of the liver, NCI-H460 and A-549 both originating from cancer of the lung, PANC-1 originating from cancer of the pancreas, U-87 MG originating from cancer of the brain, A-375 and RVH-421 both originating from cancer of melanocytes, SW-1353 originating from cancer of bone-derived chondrocytes, C2C12 a mouse cell line originating from hyperproliferative muscle progenitor cells, LL/2 a mouse cell line originating from cancer of the lung, CF21.T a dog cell line originating from cancer of the connective tissue. To this end, according cells were seeded into 96-well plates (CORNING #3598) suitable for fluorescence assays at following initial cell numbers: 1000 cells per well for HPEK; 3000 cells per well for MDA-MB-231, 8000 cells per well for ZR-75-30, 1500 cells per well for HCC-1395, 1500 cells per well for HCC-1937, 3000 cells per well for T-47D, 1500 cells per well for JURKAT, 5000 cells per well for RPMI-8402, 9000 cells per well for LOUCY, 1500 cells per well for TANQUE, 9000 cells per well for REC-1, 1000 cells per well for HL-60, 1000 cells per well for NB-4, 9000 cells per well for TT, 2000 cells per well for HeLa, 2000 cells per well for 23132/87, 9000 cells per well for SW-948, 700 cells per well for HCT-116, 1500 cells per well for BHY, 700 cells per well for A-431, 1500 cells per well for HEP-G2, 500 cells per well for NCI-H460, 1000 cells per well for A-549, 1500 cells per well for PANC-1, 2500 cells per well for U-87 MG, 700 cells per well for A-375, 1500 cells per well for RVH-421, 2000 cells per well for SW-1353, 500 cells per well for C2C12, 500 cells per well for LL/2, and 3000 cells per well for CF21.T. In a volume of 90 μL per well of culture medium the cells were treated with compounds at indicated final concentrations by adding 10 μL per well of 10× compound working solutions from 1:100 pre-diluted 1000× compound DMSO stock-solutions in H2O (Water For Injection, WFI, Fisher Scientific, Gibco™ #A12873) or with the empty carrier DMSO (AppliChem, #A3672) at 0.1% v/v as control yielding a final volume of 100 μL per well. At day 5 after starting the treatments the cells were subjected to the alamarBlue® Proliferation Assay (Bio-Rad Serotec GmbH, BUF012B) according to the protocol of the manufacturer. The readout was taken with a multi-well plate-reader (Tecan Spark®) in the fluorescence mode with applying a filter for excitation at 560 nm (band width 10 nm) and for emission at 590 nm (band width 10 nm). Treatment for maximum proliferation inhibition with the commercial cytotoxic compound (S)-(+)-camptothecin (Fluorochem #M01564) at a concentration of 10 μM was included on each plate for assay quality control. Some of the test compounds of the present invention may have been obtained and applied as their salt forms.
(§2) The assays were performed in duplicate or more replicates of independent single experiments each containing a three- to six-fold replicate for every condition. […]

HPEKp cells = test: proliferation assay with human epidermal keratinocyte progenitors (HPEKp), selectivity versus MDA-MB-231
From the text: as §1, §2

NCI-H460 cells = test: alamarBlue proliferation assay with NCI-H460 cells; conditions: read-out: Activity on NCI-H460: IC50, RPMI 1640 medium, 10% FBS
From the text: as §1, §2

HEP-G2 cells = test: alamarBlue proliferation assay with HEP-G2 cells; conditions: read-out: Activity on HEP-G2: IC50, RPMI 1640 medium, 10% FBS
From the text: as §1, §2

A-549 cells = test: alamarBlue proliferation assay with A-549 cells; conditions: read-out: Activity on A-549: IC50, DMEM medium, 10% FBS
From the text: as §1, §2

BHY cells = test: alamarBlue proliferation assay with BHY cells; conditions: read-out: Activity on BHY: IC50, DMEM medium, 10% FBS
From the text: as §1, §2

HCT-116 cells = test: alamarBlue proliferation assay with HCT-116 cells; conditions: read-out: Activity on HCT-116: IC50, McCoy's 5A medium, 10% FBS
From the text: as §1, §2

NB-4 cells = test: alamarBlue proliferation assay with NB-4 cells; conditions: read-out: Activity on NB-4: IC50, RPMI 1640 medium, 10% FBS
From the text: as §1, §2

LL/2 cells = test: alamarBlue proliferation assay with LL/2 cells; conditions: read-out: Activity on LL/2: IC50; LL/2 murine Lewis lung carcinoma cells, DMEM medium, 10% FBS
From the text: as §1, §2

TANQUE cells = test: alamarBlue proliferation assay with TANQUE cells; conditions: read-out: Activity on TANOUE: IC50, RPMI 1640 medium, 10% FBS
From the text: as §1, §2

[1] = read-out: Activity on MDA-MB-231 (IC50), glucose-free Leibovitz's L-15, 10% FBS, day 5, alamarBlue
[2] = read-out: Activity (HPEK): antiproliferative activity on HPEK cells, IC50 category, HPEK cells cultivated in CnT-Prime medium
[3] = read-out: Activity (MDA): antiproliferative activity on MDA-MB-231 cells, IC50 category, MDA-MB-231 cells cultivated in glucose-free Leibovitz's L-15 medium
[4] = read-out: Activity (HPEK), HPEK cells (HPEKp), antiproliferative activity, class by IC50
[5] = read-out: Activity (MDA), MDA-MB-231 cells, antiproliferative activity, class by IC50

Compound	pIC50 (MDA-MB-231 cells; [1])	pIC50 (HEP-G2 cells)	pIC50 (A-549 cells)	pIC50 (HPEKp cells; [4])	pIC50 (MDA-MB-231 cells; [5])	also measured
COc1ccc(CN2CC3(C2)CN(C(=O)c2ccc(Oc4ccc(C5CCC6(CC5)OCCO6)cc4C=O)cc2)C3)cc1	≥ 5.30					
Nc1ccc(CN2CCN(C(=O)c3ccc(Oc4ccc(C5CCC6(CC5)OCCO6)cc4C=O)cc3)CC2)cc1	≥ 6.70					pIC50 (HPEKp cells; [2]): > 5.00; pIC50 (NCI-H460 cells): ≥ 4.70; pIC50 (MDA-MB-231 cells; [3]): > 6.00
COC1CCC(c2c(Cl)cc(Oc3ccc(C(=O)N4CCN(Cc5ccc(Cl)cc5)CC4)nc3)c(O)c2Cl)CC1 (stereo not shown)		≥ 5.30	≥ 5.30			
COc1ccccc1CN1CCN(C(=O)c2ccc(Oc3ccc(C4CCC5(CC4)OCCO5)cc3C=O)cc2)CC1						pIC50 (HPEKp cells; [2]): > 5.30; pIC50 (MDA-MB-231 cells; [3]): > 6.00
O=C(c1ccccc1)N1CCN(C(=O)c2ccc(Oc3ccc(C4CCC5(CC4)OCCO5)cc3CO)cc2)CC1	≥ 5.30	≥ 5.30	≥ 5.30	> 5.00	> 5.30	
O=C(c1ccc(Oc2ccc(C3CCCCC3)cc2CO)cn1)N1CCN(Cc2ccccc2)CC1		≥ 6.00	≥ 6.70	> 5.00	> 6.00	pIC50 (BHY cells): ≥ 5.30
O=C(c1ccc(Oc2ccc(C3CCCCC3)cc2CO)cc1)N1CC2(CN(Cc3ccc(Cl)cc3)C2)C1	≥ 5.30	≥ 5.30	≥ 5.30			
COC1CCC(c2ccc(Oc3ccc(C(=O)N4CC5(CN(Cc6ccccc6)C5)C4)cc3)c(CO)c2)CC1 (stereo not shown)	≥ 5.30	≥ 5.30	≥ 5.30	> 5.00	> 5.30	
CC(=O)N1CCN(C(=O)c2ccc(Oc3ccc(C4CCCCC4)cc3CO)cc2)CC1	≥ 4.70					
O=C1CCC(c2ccc(Oc3ccc(C(=O)N4CCN(Cc5ccccc5)CC4)cc3)c(CO)c2)CC1	≥ 6.70	≥ 6.00	≥ 6.70	> 6.00	> 6.00	pIC50 (HCT-116 cells): ≥ 6.00; pIC50 (NB-4 cells): ≥ 6.00; pIC50 (LL/2 cells): ≥ 5.30; pIC50 (BHY cells): ≥ 6.00; pIC50 (TANQUE cells): ≥ 6.00
O=Cc1cc(C2CCCCC2)ccc1Oc1ccc(C(=O)N2CCN(Cc3ccc(Cl)cc3)CC2)cc1	≥ 6.70	≥ 6.70	≥ 6.70	> 5.30	> 6.00	
COC1CCC(c2ccc(Oc3ccc(C(=O)N4CC5(CN(Cc6ccc(Cl)cc6)C5)C4)nc3)c(CO)c2)CC1 (stereo not shown)	≥ 5.30	≥ 5.30	≥ 5.30	> 5.00	> 5.30	
CC(=O)Oc1ccc(CN2CCN(C(=O)c3ccc(Oc4ccc(C5CCC6(CC5)OCCO6)cc4CO)cc3)CC2)cc1	≥ 5.30					pIC50 (HPEKp cells; [2]): > 5.00; pIC50 (NCI-H460 cells): ≥ 4.70; pIC50 (MDA-MB-231 cells; [3]): > 5.30
COC1CCC(c2ccc(Oc3ccc(C(=O)N4CCN(Cc5ccc(Cl)cc5)CC4)nc3)c(O)c2)CC1 (stereo not shown)		≥ 6.00	≥ 6.00			
Cc1ccc(S(=O)(=O)N2CCN(C(=O)c3ccc(Oc4ccc(C5CCC6(CC5)OCCO6)cc4C=O)cc3)CC2)cc1	≥ 5.30					
